{"sequences": {"note": "Amino acid sequences for entries named in this document (tags omitted).", "UniProt P31652, whole entry": "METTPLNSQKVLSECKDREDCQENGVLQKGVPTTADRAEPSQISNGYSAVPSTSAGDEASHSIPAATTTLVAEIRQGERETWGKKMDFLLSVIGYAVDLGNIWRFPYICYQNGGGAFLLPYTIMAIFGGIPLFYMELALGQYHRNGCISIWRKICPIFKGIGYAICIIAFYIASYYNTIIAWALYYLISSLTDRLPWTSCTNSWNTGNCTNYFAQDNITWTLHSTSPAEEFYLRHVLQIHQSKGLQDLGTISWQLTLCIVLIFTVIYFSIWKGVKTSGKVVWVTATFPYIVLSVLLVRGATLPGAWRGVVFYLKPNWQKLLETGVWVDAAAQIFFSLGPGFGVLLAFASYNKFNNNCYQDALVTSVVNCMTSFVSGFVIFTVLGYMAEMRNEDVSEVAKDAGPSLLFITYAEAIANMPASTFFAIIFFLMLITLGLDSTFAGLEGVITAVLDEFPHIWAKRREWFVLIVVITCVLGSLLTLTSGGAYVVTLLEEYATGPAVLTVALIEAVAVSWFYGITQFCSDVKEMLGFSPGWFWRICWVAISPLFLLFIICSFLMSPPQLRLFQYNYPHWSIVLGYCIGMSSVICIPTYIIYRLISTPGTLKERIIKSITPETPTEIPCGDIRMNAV"}, "source": "ChEMBL document CHEMBL1134874", "about": "“Identification of a novel partial inhibitor of dopamine transporter among 4-substituted 2-phenylquinazolines” (Bioorg Med Chem Lett, 2002)", "target": "Sodium-dependent serotonin transporter (Rattus norvegicus, UniProt P31652)", "experiment": "Inhibition of [125I]RTI-55 binding to Serotonin transporter of rat caudate membranes", "format": "cell membranes, Membrane"}
{"compound": "COC(=O)[C@H]1[C@@H](OC(=O)c2ccccc2)C[C@@H]2CC[C@H]1N2C", "note": "[COCAINE]", "values": [{"measurement": "Ki", "result": 0.13, "unit": "µM"}]}
